From patent US8470800B2, “Method of reducing intraocular pressure in humans” (Inotek Pharmaceuticals Corporation, priority 2009, dated 2013)

Chains of the proteins cited; added tags and fusions are not shown.
UniProt P0DMS8, whole entry: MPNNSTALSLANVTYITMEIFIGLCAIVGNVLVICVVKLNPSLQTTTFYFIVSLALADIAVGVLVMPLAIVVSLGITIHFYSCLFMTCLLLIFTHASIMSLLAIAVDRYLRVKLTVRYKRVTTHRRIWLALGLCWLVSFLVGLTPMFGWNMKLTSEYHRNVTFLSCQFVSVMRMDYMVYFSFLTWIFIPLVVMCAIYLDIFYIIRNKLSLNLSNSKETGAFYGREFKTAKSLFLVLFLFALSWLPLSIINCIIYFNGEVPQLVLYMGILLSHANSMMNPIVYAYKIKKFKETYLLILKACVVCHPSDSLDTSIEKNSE

Tests used:
[1] = target: A3 adenosine receptor (Homo sapiens (Human), UniProt P0DMS8); assay: Adenosine receptor binding selectivity A1 > A3; conditions: ratio of Ki values
Description: (§1) As used herein, the term “selective adenosine A1 agonist” means an A1 agonist that has a high affinity to the A1 receptor while simultaneously having a low affinity for the A2 and A3 adenosine receptors.
(§2) Membranes for radioligand binding experiments are prepared from fresh or frozen cells as described in Klotz et al., Naunyn-Schmiedeberg's Arch. […] The cell suspension is then homogenized in ice-cold hypotonic buffer (5 mM Tris/HCl, 2 mM EDTA, pH 7.4) and the homogenate is spun for 10 minutes (4° C.) at 1,000 g.
(§3) Nonspecific binding is determined in the presence of 100 μM R-PM and 1 mM theophylline, respectively. For details see Klotz et al., Naunyn-Schmiedeberg's Arch.

[2] = target: A2A adenosine receptor (Homo sapiens (Human), UniProt P29274); assay: Adenosine receptor binding selectivity A1 > A2A; conditions: ratio of Ki values
Description: as §1, §2, §3

[3] = Clinical study: single topical ocular dose, intraocular pressure in adults with OHT or POAG; type: in vivo, human
Excerpt: The clinical study described herein is a multi-center, randomized, double-blind, placebo-controlled, dose-escalation study of a single topical ocular application of the study drug (i.e., Compound A or placebo) to the one study eye of adults with OHT or POAG. The “study eye” was defined as the eye with the higher mean IOP, recorded between 7:00 and 8:00 AM on the day prior to dosing (Day 0).
The adult subjects were sequentially assigned to 1 of 7 treatment groups. Each treatment group included twelve subjects: 8 subjects randomized to receive 2.5, 7.5, 20, 60, 180, 350 or 700 micrograms of Compound A in the study eye and 4 randomized to receive matched placebo (see Table 1) on Day 1.
Masked-intraocular pressures were determined in duplicate with a Goldmann tonometer following traditional corneal anesthesia. Following determination of the bilateral baseline (predose) IOP measurements on the morning of Day 1, the assigned study drug (Compound A or matched placebo) was instilled as a single 50 μL drop to the one study eye only. Subsequent bilateral external eye examinations and masked-IOP determinations were performed at 9:00 AM, 10:00 AM, 12:00 noon, and 2:00 PM (each ±5 minutes), corresponding to 1, 2, 4, and 6 hours post study drug application. In addition in the 700 mcg cohort an IOP determination was performed at 6:00 PM (18:00), corresponding to 10 hours post study drug application. […]

SMILES	A1 > A3 SELECTIVITY [KiA3(nm)/KiA1(nm)] [1]	A1 > A2A SELECTIVITY [KiA2(nm)/KiA1(nm)] [2]	decrease in mean and median IOPs from predose baseline relative to the placebo response ([3]; 350 mcg cohort)	decrease in mean and median IOPs from predose baseline relative to the placebo response ([3]; 700 mcg cohort)
O=[N+]([O-])OC[C@H]1O[C@@H](n2cnc3c(NC4CCCC4)ncnc32)[C@H](O)[C@@H]1O [Compound A, ((2R,3S,4R,5R)-5-(6-(cyclopentylamino)-9H-purin-9-yl)-3,4-dihydroxytetrahydrofuran-2-yl)methyl nitrate]	725	4837	statistically significant decrease	statistically significant decrease
O=[N+]([O-])OC[C@H]1O[C@@H](n2cnc3c(NC4CCCCC4)nc(Cl)nc32)[C@H](O)[C@@H]1O [Compound H, ((2R,3S,4R,5R)-5-(2-chloro-6-(cyclohexylamino)-9H-purin-9-yl)-3,4-dihydroxytetrahydrofuran-2-yl)methyl nitrate]	167	192	–	–
